Experimental findings from PMC6902473 (Clinical Epigenetics, 2019) are described below.

SMILES strings stand for the structures.

This data set in a line: Plasma pharmacokinetics of vorinostat after oral administration (non-compartmental analysis). The text has this: The assays were validated according to the common FDA and EMA guidelines on bioanalytical method validation.

Regarding `O=C(CCCCCCC(=O)Nc1ccccc1)NO` [vorinostat], the “t1/2, Minimum” value (530 mg/m2/d oral, plasma, minimum of 3 values) stood at 1.36 h. Where the note is “human, in vivo, 214 mg/m2”, this compound had a t1/2 of 1.12 h.
